Yeast mating assay 1: variants of the scFv Ab-14

The target is the same throughout: PDVDLGDISGINAS, from the HR2 region of SARS-CoV-2 spike.

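The library (AAYL50) carries one to three amino acid substitutions per variant, with no insertions or deletions. In AlphaSeq, yeast of one mating type display the scFv and yeast of the other type display the target. The frequency of each diploid, read from paired DNA barcodes, reflects how well the two displayed proteins bind. The ratio of observed to expected reads was calibrated, replicate by replicate, on BCL2-family standards whose Kd was known from biolayer interferometry. There are three technical replicates.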

Each scFv is VH, three GGGGS repeats, VL, as in the parent Ab-14, and differs from it in the CDRs of the light chain only.
VH: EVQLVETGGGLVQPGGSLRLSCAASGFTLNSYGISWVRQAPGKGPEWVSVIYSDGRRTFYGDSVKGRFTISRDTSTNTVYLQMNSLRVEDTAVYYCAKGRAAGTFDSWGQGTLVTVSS
VL: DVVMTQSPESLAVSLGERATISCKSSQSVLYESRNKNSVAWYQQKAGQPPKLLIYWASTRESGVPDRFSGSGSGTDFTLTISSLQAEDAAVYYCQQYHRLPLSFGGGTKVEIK

The parent's light chain CDRs are KSSQSVLYESRNKNSVA, WASTRES, QQYHRLPLS; each variant's own CDRs replace them letter for letter. Values are log10 of the apparent Kd in nM; lower means stronger binding. A mean of the replicates is given; it leaves out those without a signal. "no signal" marks a missing value. The strain was present, yet no cells mated with the target were sequenced in any replicate, which points to weak or no binding. In this assay the parent's reference entry averaged 0.65; its copy inside this library read 1.68.

mean log10 Kd (nM) | detected | CDR-L1 | CDR-L2 | CDR-L3
0.97 | 3/3 | KSSQSVLVESRNKNSVA | WDSTRES | QQYHRLPLS
0.44 | 3/3 | KVSQSVLYESRNKGSVA | WASTREG | QQYHRLPLS
3.34 | 1/3 | KSSQSVLYCSRNKNSVA | WASTLRS | QQYHRLPLS
4.48 | 1/3 | KSSQSVLYESRRKNSVA | WASTRES | GQYHRQPLS
no signal | 0/3 | YSSNSVLYESRNSNSVA | WASTRES | QQYHRLPLS
no signal | 0/3 | KSSQSVLYESRNKNSVA | WARPQES | QQYHRLPLS
no signal | 0/3 | KSSQSVLYESINKNIVA | WASTRES | GQYHRLPLS
1.22 | 3/3 | KSSQSVFYESRNKNSVA | WASTRES | QQYGRLPIS
5.04 | 3/3 | KSSQSQLWESRNKNSVA | WASTRES | QQYHRLMLS
no signal | 0/3 | KSSQYVLYESMNLNSVA | WASTRES | QQYHRLPLS
no signal | 0/3 | KSSQGALYESRNKNSVA | WASTRES | QQEHRLPLS
1.18 | 3/3 | KSSQSVLYESRNLNSVA | WASTREG | QQYHMLPLS
no signal | 0/3 | KSSQSVLYESRNKNTVA | WASTREK | QQYHRLPLS
1.32 | 3/3 | LSSQSVLDESMNKNSVA | WASTRES | QQYHRLPLS
1.56 | 3/3 | KSSTSVLYESRNKNYVA | WASTRER | QQYHRLPLS
2.67 | 3/3 | KSSQSVLYESRYKNSVA | WASTRES | QQYHTLPLS
no signal | 0/3 | KSSQSVLMESRNKNSVA | WASTRKS | QQWHRLPLS
4.73 | 1/3 | KSSQSVLYESRNKTSPQ | WASTRES | QQYHRLPLS
4.31 | 1/3 | KSSQSVLYESRNKNSVA | WNSTRES | QQYHRTPLS
no signal | 0/3 | KSSQSVNYKSRNKNSVA | WASTRES | QQYHRLPLK
3.12 | 3/3 | KSSQSVQYFKRNKNSVA | WASTRES | QQYHRLPLS
-0.73 | 3/3 | KLRQSTLYESRNKNSVA | WASTRES | QQYHRLPLS
2.25 | 3/3 | KSNHSVLYESRNKNSVA | WASTRES | QTYHRLPLS
3.03 | 3/3 | KSSQSVSYESRNKNSVA | WASFRES | HQYHRLPLS
1.31 | 3/3 | KFSQSVLYESRNKNSVA | WASTRPS | QQYNRLPLS
no signal | 0/3 | KSSQSVLYISRNKNQVA | WASTRES | QQYHNLPLS
no signal | 0/3 | CSSQSVTYESRNKNSVA | WASTCES | QQYHRLPLS
no signal | 0/3 | KSNQSVLYESRNKNSVA | WSSTRES | QQYHRLPRS
no signal | 0/3 | KSSQSELYESRNKNSFA | WASTRES | QQYHYLPLS
no signal | 0/3 | KKSQSVIYESRNKNSVA | WNSTRES | QQYHRLPLS
no signal | 0/3 | KSSQSVLYESRNKNSVA | WASTRES | QQLWRLPLS
no signal | 0/3 | KSSQSVLYESRNKNLVA | WASTREK | QQYHRLPLS
0.41 | 3/3 | KSSQSVLYESRNKNSVA | KASTRES | QQYHRLPNS
no signal | 0/3 | TSSQSVLYESRNKNSVA | WASTKES | QQYWRLPLS
5.49 | 1/3 | KSSQSVLYQSRDKNSVA | WASTRES | QQYHCLPLS
2.43 | 2/3 | QSSQSVLYESRGKNSVA | WASTRES | QQYHNLPLS
no signal | 0/3 | KSSQKVLYESRPKNSVA | WDSTRES | QQYHRLPLS
3.98 | 1/3 | KSSQIVLYESRNKNSVA | WASTREY | QQLHRLPLS
no signal | 0/3 | KSSQSVLYESRNKNKVA | WASTRES | QQYHRLILS
3.81 | 1/3 | KSSQSVLYVSRNKNSAA | WGSTRES | QQYHRLPLS
2.05 | 3/3 | KSSQSVLTESRNKNSVA | WASTREH | QQYHRPPLS
no signal | 0/3 | KSSQSVLYESRNKNSVP | WASTRES | QQMHRLPLS
4.05 | 3/3 | KSSQSYLYESRYKNSVA | WASTRES | QQYHGLPLS
3.91 | 2/3 | KSSQSDLYESRNKNSAA | WASTRES | QQYHRWPLS
3.35 | 3/3 | KSSQAVLYESRNKNSVA | WASTREH | QQFHRLPLS
1.19 | 3/3 | KSSISVLYESRNKNSVA | WASTRYS | QQYHRDPLS
4.38 | 1/3 | KSSQSVLYESRNKNSYA | WASTRES | QDYVRLPLS
3.64 | 3/3 | KISISVIYESRNKNSVA | WASTRES | QQYHRLPLS
no signal | 0/3 | KSSQAVLYESRNKNSVW | DASTRES | QQYHRLPLS
0.97 | 3/3 | KSSQSVLYEMRNSNSVA | WASTRES | QQYHRLKLS
2.93 | 1/3 | KSSQSVLYESRNQNSVA | WASDRES | QQRHRLPLS
2.90 | 2/3 | KSSQYVLYESRNKTSVA | WASTRES | QQYHRLPLS
2.53 | 3/3 | KSSQSVLYESRRKGSVA | WASTRES | QQYHRKPLS
2.98 | 1/3 | KSSQSVLYEKRDKNSVA | WACTRES | QQYHRLPLS
2.40 | 3/3 | NSSQSVLYQSRNKNSVA | WASFRES | QQYHRLPLS
no signal | 0/3 | KSSQDPLYESRNKNSVA | WASTRES | QQYHRLPLN
2.33 | 3/3 | KSSFSVLYESWNKNSVA | WASTRES | QQYHWLPLS
no signal | 0/3 | KSSASVLYESRNKNSVA | WASTRSS | LQYHRLPLS
6.25 | 1/3 | KSSQSVRYQSRNKNSVA | WASTRES | QQYHRYPLS
3.07 | 2/3 | KSSQSVLYEVRNKNSVA | WASTREH | QQYHRLPLS
no signal | 0/3 | KSSQSVLYESINKNSVA | WASTRES | QYYHRLPCS
no signal | 0/3 | KGSQSVLYESRNKNSVR | WASQRES | QQYHRLPLS
no signal | 0/3 | KSSQSLLYFSRNKNSVA | WASTRES | QQYHRLFLS
no signal | 0/3 | KSSQSVLYESRNLNSGA | WASTRYS | QQYHRLPLS
1.29 | 3/3 | KSSQSVCGESRNKNSVA | WASTRES | QQYHRLPLH
0.85 | 3/3 | KSSQSVLQESCNKNSVA | WASTRES | QQYHRLPLS
4.02 | 2/3 | KSSQSPLYSSRNKNSVA | WASTRES | QQYHRTPLS
0.55 | 3/3 | KSSQSVLYESRNKNSVA | MASTRES | CQYHRIPLS
no signal | 0/3 | KSSQSVLYESRNKNSVN | WALTAES | QQYHRLPLS
no signal | 0/3 | KSSQSVLYSSRNKNSVR | WASTRES | QQYHRLPLS
1.91 | 2/3 | KSSQSVLFESRNKNRVA | WDSTRES | QQYHRLPLS
3.18 | 3/3 | WSAQSVLYESRNKNSVA | WASTRES | QQYHYLPLS
2.20 | 3/3 | KSSQSVLYFSRNKNSVA | WASTRES | QQYHRLWLS
5.12 | 3/3 | KSSQFVLYESRPKNSVA | WWSTRES | QQYHRLPLS
2.59 | 3/3 | IQSQSVLYWSRNKNSVA | WASTRES | QQYHRLPLS
2.14 | 3/3 | KYSQSVLYESRGKLSVA | WASTRES | QQYHRLPLS

Extract of 7 entries:

CDR-L1 | CDR-L2 | CDR-L3 | mean log10 Kd (nM) | detected
KSSQAVLYESRNKNSVW | DASTRES | QQYHRLPLS | no signal | 0/3
KGSQSVLYESRNKNSVR | WASQRES | QQYHRLPLS | no signal | 0/3
KSSQSVLYESRNKNSVP | WASTRES | QQMHRLPLS | no signal | 0/3
KFSQSVLYESRNKNSVA | WASTRPS | QQYNRLPLS | 1.31 | 3/3
KSSQSDLYESRNKNSAA | WASTRES | QQYHRWPLS | 3.91 | 2/3
KSSQSVLVESRNKNSVA | WDSTRES | QQYHRLPLS | 0.97 | 3/3
WSAQSVLYESRNKNSVA | WASTRES | QQYHYLPLS | 3.18 | 3/3

Empty control strains, which show no peptide, gave a signal in 18% of pairings with library AAYL50; the median was 4.19 and 95% of these signals were weaker than 2.99. No background was subtracted.

From the AlphaSeq antibody data of Engelhart et al. 2022 (doi:10.1038/s41597-022-01779-4), copy in the FLAb collection.